Laboratory results as given in paper PMC3762585 (Chemical & pharmaceutical bulletin, 2012).

System: JMAR
Test: MTS viability
Conditions: Homo sapiens, read-out: Cytotoxicity IC50 JMAR

SMILES: CC1=C(CO)C(=O)O[C@@H]([C@@H](C)[C@H]2CC[C@H]3[C@@H]4C[C@H]5O[C@]56[C@@H](O)C=CC(=O)[C@]6(C)[C@H]4CC[C@]23C)C1 [Withaferin A 6, withaferin A]
- IC50: 1.5 ± 0.23 µM
